Measurements reported in patent US20020055099A1, “SEQUENTIAL CDNA LIBRARY AND USES THEREOF” (priority 1999, published 2002).

How the values were obtained:
[1] = system: HO-1 human melanoma cells; experiment: SCLA reverse Northern hybridization of arrayed subtracted cDNA library with mRNAs from treated HO-1 cells; type: cell-based; conditions: IFN-β 2000 units/ml, MEZ 10 ng/ml, staurosporine 500 ng/ml, temporally pooled mRNAs
Protocol: Human HO-1 melanoma cells were grown in Dulbecco's modified Eagle' medium supplemented with 10% fetal calf serum, penicillin/streptomycin (100 U/100 μg/ml) at 37° C. in a 5% CO2 air humidified incubator (Fisher et al., 1985). Cells were refed with fresh growth medium and treated with 2,000 U/ml IFN-β, 10 ng/ml of MEZ in DMSO (final 0.1% DMSO), 2,000 U/ml IFN-β+10 ng/ml MEZ in DMSO (final 0.1% DMSO) or 500 ng/ml staurosporine.
Control and HO-1 cells treated with IFN-β, MEZ or IFN-β+MEZ were harvested at 2, 4, 8, 12, 24 and 48 hrs for RNA extraction. Staurosporine-treated HO-1 cells were harvested at 4, 8 and 24 hrs after treatment. Total RNA was prepared by lysis in 4 M guanidine isothiocyanate followed by ultracentrifugation through CsCl gradients (Sambrook et al., 1989). For temporally spaced cDNA libraries, control and IFN-β+MEZ-treated RNA samples from each time point were pooled and mRNA was purified by oligo (dT)-cellulose column chromatography (Sambrook et al., 1989). Control (DRIVER) and IFN-β+MEZ-treated (TESTER) temporally spaced cDNA libraries were constructed with a λZAP cDNA library kit as described by the manufacturer (Stratagene). A subtracted λZAP cDNA library (IFN-β+MEZ-treated minus control) was constructed as described previously (Jiang and Fisher, 1993).
Both prior to and after amplification, the subtracted cDNA library was plated at ˜500 plaques/15-cm bacterial culture plate to ensure good separation. Each plaque was manually isolated (by toothpick) and transferred to an individual well in a 384-well microtiter plate containing 50 μl SM-1 μl chloroform/well (primary working array) and stored at 4° C. This approach produced a primary un-amplified and a primary amplified working array. Additional secondary and tertiary arrays of the un-amplified and amplified subtracted cDNA library in 384-well plate containing 50 μl SM with 7% DMSO/well was prepared and stored at minus 80° C. for long term storage. After isolation, the remaining phage plaques were harvested from the plate for further applications including amplification. […]

[2] = system: HO-1 human melanoma cells; conditions: HO-1 cells; IFN-β 2000 units/ml, MEZ 10 ng/ml where printed; cited from earlier work

Q: Which “positive clones (DMAC) identified after treatment, of 427 positive clones” value [1] does the source give for `C=C(C)[C@@]12O[C@@]3(c4ccccc4)O[C@@H]1[C@@H]1[C@@H]4O[C@]4(CO)[C@@H](O)[C@]4(O)C(=O)C(C)=C[C@H]4[C@@]1(O3)[C@H](C)[C@H]2OC(=O)/C=C/C=C/c1ccccc1` [MEZ, mezerein] here?
A: Its value is 198 clones.

B1: IFN-β: recombinant human fibroblast interferon, a type I interferon (protein, UniProt P01574 22-187, looked up)
Interferon beta: MSYNLLGFLQRSSNFQCQKLLWQLNGRLEYCLKDRMNFDIPEEIKQLQQFQKEDAALTIYEMLQNIFAIFRQDSSSTGWNETIVENLLANVYHQINHLKTVLEEKLEKEDFTRGKLMSSLHLKRYYGRILHYLKAKEYSHCAWTIVRVEILRNFYFINRLTGYLRN
Q: With B1 as the molecule, how does the “clones induced only by the agent (uniquely positive after a single treatment protocol)” value [1] read?
A: Its value is 32 clones.

Q: And the “positive clones (DMAC) identified after treatment, of 427 positive clones” value [1]?
A: Its value is 198 clones.

Q: What about the “effect on HO-1 cell growth” value [2] of the same molecule?
A: The value was “growth suppression”.

Q: And the “melanin synthesis / differentiation marker” value [2]?
A: Its value is “elevation in melanin synthesis”.
